# In US20020183290A1, “Adrenergic receptor antagonists selective for both alpha1A-and alpha1D-subtypes and uses therefor” (Recordati S.A., Chemical and Pharmaceutical Company, priority 2001, published 2002):
# The chains behind the UniProt entries cited, without tags or fusion partners.
# UniProt P35368, whole entry: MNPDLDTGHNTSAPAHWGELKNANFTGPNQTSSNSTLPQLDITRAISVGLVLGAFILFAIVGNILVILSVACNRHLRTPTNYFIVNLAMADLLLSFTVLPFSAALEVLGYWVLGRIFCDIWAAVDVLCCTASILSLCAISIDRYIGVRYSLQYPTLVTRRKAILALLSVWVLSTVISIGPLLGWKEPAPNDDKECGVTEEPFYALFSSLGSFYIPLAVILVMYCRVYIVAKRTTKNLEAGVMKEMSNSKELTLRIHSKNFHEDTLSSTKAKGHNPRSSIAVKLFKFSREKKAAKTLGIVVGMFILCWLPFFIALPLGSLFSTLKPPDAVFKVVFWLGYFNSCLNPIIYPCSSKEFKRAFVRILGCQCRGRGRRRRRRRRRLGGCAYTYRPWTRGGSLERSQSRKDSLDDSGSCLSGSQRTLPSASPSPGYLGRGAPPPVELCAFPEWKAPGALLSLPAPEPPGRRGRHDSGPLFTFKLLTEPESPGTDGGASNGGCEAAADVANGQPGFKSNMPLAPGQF
# UniProt P25100, whole entry: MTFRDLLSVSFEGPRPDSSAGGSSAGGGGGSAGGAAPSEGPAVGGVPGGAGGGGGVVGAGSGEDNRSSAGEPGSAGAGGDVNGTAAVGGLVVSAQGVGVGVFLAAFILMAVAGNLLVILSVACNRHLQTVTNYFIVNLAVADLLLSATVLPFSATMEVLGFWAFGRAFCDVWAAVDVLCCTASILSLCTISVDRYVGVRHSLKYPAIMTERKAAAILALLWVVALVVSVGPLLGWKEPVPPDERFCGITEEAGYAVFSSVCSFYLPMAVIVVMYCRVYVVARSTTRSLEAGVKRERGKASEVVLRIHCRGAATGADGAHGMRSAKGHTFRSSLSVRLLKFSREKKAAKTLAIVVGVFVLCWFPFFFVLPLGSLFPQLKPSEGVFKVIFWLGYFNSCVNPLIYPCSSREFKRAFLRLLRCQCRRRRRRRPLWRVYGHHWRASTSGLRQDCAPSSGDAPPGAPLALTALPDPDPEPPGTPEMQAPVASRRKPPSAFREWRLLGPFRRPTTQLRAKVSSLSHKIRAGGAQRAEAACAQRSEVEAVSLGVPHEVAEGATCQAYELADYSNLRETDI
# Experiments:
# [1] = target: T1, cloned α1b-adrenoceptor subtype (Homo sapiens, UniProt P35368); assay: Radioligand binding assay ([3H]prazosin), cloned α1b-adrenoceptor subtype; settings: read-out: Binding Affinity (Ki nM) α1b
# T1 construct: expressed in transfected cells
# [2] = target: T2, cloned α1a-adrenoceptor subtype (Homo sapiens, UniProt P35348); assay: Radioligand binding assay ([3H]prazosin), cloned α1a-adrenoceptor subtype; settings: read-out: Binding Affinity (Ki nM) α1a
# T2 construct: expressed in transfected cells
# T2 sequence (P35348 1-466): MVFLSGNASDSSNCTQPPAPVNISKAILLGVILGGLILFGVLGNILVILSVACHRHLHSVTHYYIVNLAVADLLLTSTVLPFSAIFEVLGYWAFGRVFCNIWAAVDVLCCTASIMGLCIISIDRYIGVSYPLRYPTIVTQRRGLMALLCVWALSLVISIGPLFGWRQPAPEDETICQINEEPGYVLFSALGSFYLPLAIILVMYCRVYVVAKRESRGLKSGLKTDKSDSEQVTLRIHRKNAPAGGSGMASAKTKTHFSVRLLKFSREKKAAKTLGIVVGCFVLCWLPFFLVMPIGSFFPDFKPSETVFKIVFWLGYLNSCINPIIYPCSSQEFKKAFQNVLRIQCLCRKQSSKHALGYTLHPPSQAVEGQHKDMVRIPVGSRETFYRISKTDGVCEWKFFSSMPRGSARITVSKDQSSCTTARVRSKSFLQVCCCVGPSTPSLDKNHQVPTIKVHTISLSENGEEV
# [3] = target: T3, cloned α1d-adrenoceptor subtype (Homo sapiens, UniProt P25100); assay: Radioligand binding assay ([3H]prazosin), cloned α1d-adrenoceptor subtype; settings: read-out: Binding Affinity (Ki nM) α1d
# T3 construct: expressed in transfected cells
Compound,Ki [1] [nM],Ki [2] [nM],Ki [3] [nM]
COc1ccccc1N1CCN(CCCNC(=O)c2cccc3c(=O)c(C)c(-c4ccccc4)oc23)CC1 [Rec 15/2739],4.55,0.11,1.44
O=C1CC2(CCCC2)CC(=O)N1CCN1CCN(c2cc(Cl)ccc2Cl)CC1 [Rec 26D/038],,128,
